Measurements reported in PMC9630929 (Journal of medicinal chemistry, 2022).

The chains behind the UniProt entries cited, without tags or fusion partners. Residues count along the entry.
UniProt P51532, 1453-1564 limits assumed: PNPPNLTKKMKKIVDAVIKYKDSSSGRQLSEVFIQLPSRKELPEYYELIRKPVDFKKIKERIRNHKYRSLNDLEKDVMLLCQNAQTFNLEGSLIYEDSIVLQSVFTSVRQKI

What was measured:
[1] = tested on: SMARCA4 bromodomain; conditions: cited from earlier work
[2] = molecular target: SMARCA4 bromodomain (Homo sapiens, UniProt P51532); conditions: DSF, 100 μM inhibitor, 10 μM bromodomain
[3] = tested on: RWPE-1 cells; conditions: 0.1, 1, 10 μM

| Compound | binding toward SMARCA4 bromodomain [1] | SMARCA4 ΔTm [2] | growth inhibition of RWPE-1 cells [3] |
| --- | --- | --- | --- |
| CN(C)/C=C1\CCn2c1nc(=O)c1c(Cl)cccc12 [Compound 2, (E)-6-Chloro-3-((dimethylamino)methylene)-2,3-dihydropyrrolo[1,2-a]quinazolin-5(1H)-one] | nanomolar binding | – | – |
| Cc1ccccc1C1NC(=O)c2c(Cl)cccc2N1 (centres unmarked) [Compound 15, 5-Chloro-2-(2-methylphenyl)-2,3-dihydroquinazolin-4(1H)-one] | – | did not exhibit detectable thermal stabilization | – |
| Cc1cccc(C2NC(=O)c3c(Cl)cccc3N2)c1 (centres unmarked) [Compound 16, 5-Chloro-2-(3-methylphenyl)-2,3-dihydroquinazolin-4(1H)-one] | – | did not exhibit detectable thermal stabilization | do not inhibit the growth |
| Cc1cccc(C2NC(=O)c3c(Br)cccc3N2)c1 (centres unmarked) [Compound 34, 5-Bromo-2-(3-methylphenyl)-2,3-dihydroquinazolin-4(1H)-one] | – | – | do not inhibit the growth |
